# In ChEMBL document CHEMBL5523703, “Modulators for palmitoylation of proteins and small molecules” (Eur J Med Chem, 2024):
# Target: T1, Carnitine O-palmitoyltransferase 1, liver isoform (Homo sapiens, UniProt P50416)
# T1 sequence (P50416 whole entry): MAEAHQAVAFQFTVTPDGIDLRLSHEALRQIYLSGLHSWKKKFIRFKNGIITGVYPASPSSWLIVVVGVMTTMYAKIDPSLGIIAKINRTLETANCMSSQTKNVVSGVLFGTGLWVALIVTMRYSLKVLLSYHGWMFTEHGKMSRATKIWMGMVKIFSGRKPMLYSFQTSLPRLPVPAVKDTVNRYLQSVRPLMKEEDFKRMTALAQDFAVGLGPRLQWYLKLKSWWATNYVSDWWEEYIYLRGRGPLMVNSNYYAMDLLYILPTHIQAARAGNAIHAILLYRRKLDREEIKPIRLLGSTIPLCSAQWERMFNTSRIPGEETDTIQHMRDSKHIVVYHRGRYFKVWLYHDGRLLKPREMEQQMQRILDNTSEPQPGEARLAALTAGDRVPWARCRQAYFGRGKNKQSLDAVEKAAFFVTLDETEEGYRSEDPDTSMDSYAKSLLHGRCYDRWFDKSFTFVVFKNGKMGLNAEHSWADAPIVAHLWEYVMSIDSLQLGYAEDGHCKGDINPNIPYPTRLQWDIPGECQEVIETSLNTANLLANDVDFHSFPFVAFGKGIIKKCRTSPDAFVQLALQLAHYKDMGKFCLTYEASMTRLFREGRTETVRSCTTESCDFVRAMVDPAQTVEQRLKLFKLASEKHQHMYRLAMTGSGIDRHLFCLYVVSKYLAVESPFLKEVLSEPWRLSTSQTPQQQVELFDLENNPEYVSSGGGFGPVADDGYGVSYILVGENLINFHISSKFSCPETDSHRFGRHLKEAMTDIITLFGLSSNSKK
# Experiment: Inhibition of CPT1 (unknown origin)
smiles,measurement,value
CCCCc1oc2ccccc2c1C(=O)c1cc(I)c(OCCN(CC)CC)c(I)c1 [AMIODARONE],IC50,228 µM
